Experimental findings from PMC6482957 (Nature structural & molecular biology, 2018) are described below.

The test system of the assay is BD-RING-PHD (BRP) region of p300. The assay is described as follows: 1H,15N HSQC NMR titration, p300 BD-RING-PHD. It counts as binding, human. As to conditions: 15N-labeled BD-RING-PHD, 298K, pH 7.0.

In the case of “H3_1–19: unmodified H3_1–19, which is the ligand of ZZ”, the “Interaction with BD-RING-PHD” value is on record as “does not recognize”.
